# Reference: ChEMBL document CHEMBL6096636 (Bioorg Med Chem, 2024)
# What was measured:
# Format in all cases: functional
# [1] = Resistance index, ratio of IC50 for sulfadoxine-pyrimethamine and mefloquine resistant Plasmodium falciparum clinical isolate CP286 to IC50 for erythrocytic stage of Plasmodium falciparum 3D7
# [2] = Resistance index, ratio of IC50 for chloroquine resistant Plasmodium falciparum clinical isolate GB4 to IC50 for erythrocytic stage of Plasmodium falciparum 3D7
# [3] = Resistance index, ratio of IC50 for quinine and chloroquine resistant Plasmodium falciparum clinical isolate C2A to IC50 for erythrocytic stage of Plasmodium falciparum 3D7
Compound,Ratio IC50 [1],Ratio IC50 [2],Ratio IC50 [3]
CCc1nc(N)nc(N)c1-c1ccc(Cl)cc1 [PYRIMETHAMINE],> 2020,–,–
COc1ccc2c(CN[C@H]3CC[C@@H](Nc4ncc(C(=O)NO)cn4)CC3)cn(C)c2c1.Cl,3.4,2.4,2
Cc1ccc2c(CN[C@H]3CC[C@@H](Nc4ncc(C(=O)NO)cn4)CC3)cn(C)c2c1.Cl,2.5,2.6,2.2
